The list shows a part of the results, in another mix than the full data. Some of these compounds have results that are not shown, active ones among them. Activity calls are given as the source filed them. The call rests on the fitted dose curve; in most records, active means well fitted inhibition curve with a large enough effect; inconclusive means small, poorly fitted or top-dose-only effect, or effect the other way; inactive means flat fitted curve, though single readings scatter.
molecular target: ATP-dependent 6-phosphofructokinase (Trypanosoma brucei brucei) (UniProt O15648); test: qHTS Assay to Find Inhibitors of T. brucei phosphofructokinase; further: nearly all actives have a fitted effect of over 60% in size; settings: T. brucei PFK, ADP-Glo luminescence; at 57.5 µM (top of the series)
Description: NIH Molecular Libraries Probe Production Network [MLPCN] NIH Chemical Genomics Center [NCGC] Grant: 1 R03 MH092153-01 PI Name: Malcolm Walkinshaw, University of Edinburgh NCGC Assay Overview: Various species of the protozoan family Trypanosomatidae are responsible for a range of serious human diseases in tropical and subtropical areas of the world. […] Many of the disorders caused by trypanosomatids are fatal if left untreated, but most currently used drugs are inefficient and toxic. […] Oxidative metabolism involving the mitochondrial tricarboxylic acid cycle and oxidative phosphorylation are repressed in these parasites, and recent RNA interference (RNAi) experiments have shown that even partial depletion of certain individual glycolytic enzymes can lead to the death of cultured parasites. One such glycolytic enzyme, phosphofructokinase (PFK), catalyzes the formation of fructose-1,6-bisphosphate (F1,6BP) and ADP from fructose-6-phosphate (F6P) and ATP, and in many metabolic circumstances makes an important contribution to the control of flux through the glycolytic pathway. As a specific glycolytic target, PFK is particularly attractive as it catalyzes the first irreversible step in glycolysis, and structural and kinetic studies have shown very substantial and essential differences from corresponding host enzymes, allowing for the discovery of parasite-selective inhibitors. The goal of this screen is to find small-molecule inhibitors of T. brucei PFK using a biochemical assay that measures PFK activity as a function of ADP production. A luminescence-based assay for T. brucei PFK activity has been developed which uses luciferase to detect production of ADP. Traditional luciferase-based nucleotide detection reagents rely on ATP production as a direct substrate for the luciferase reaction; however, PFK catalyzes the transfer of a phosphate from ATP to F6P, resulting in the net depletion of ATP. To directly measure the ADP product of the PFK reaction, we used the ADP-Glo detection kit (Promega), which utilizes two separate reactions to 1) deplete all remaining uncatalyzed ATP and 2) convert all remaining ADP to ATP, which is then detected through a traditional luciferase-coupled reaction. Compounds were screened as a concentration-titration series that ranged from 57 uM to 0.7 nM.
NCGC Assay Protocol Summary: NCGC Assay Protocol Summary: Substrate buffer was dispensed into white, solid 1536-well plates at 3uL/well in 0.1M triethanolamine (TEA) buffer, pH 8.0, containing final concentrations of 5 mM MgCl2, 0.01% Tween20, 0.5 mM fructose-6-phosphate (F6P) and 0.1mM ATP. Then, 23 nL of compounds or DMSO were delivered to each well using a pin tool. One uL T. brucei PFK (0.1M TEA, 0.01% Tween20, 0.1% bovine serum albumin (BSA) and 1.25nM PFK, final concentrations) was then dispensed, and plates were incubated at room temperature for 45 min. The luminescent detection reagent, ADP-Glo (Promega), was then added in two steps: the first reagent, ADP-Glo (which converts remaining uncatalyzed ATP), was added at 2.5uL/well and incubated for ten minutes at room temperature, and the second component, Kinase Detection reagent (which converts ADP to ATP as a substrate for luciferase-based luminescence), was added immediately after at 5uL/well, followed by one final ten minute room temperature incubation. The plates were measured on a ViewLux plate reader for luminescent signal using a clear filter with a one second exposure. The %Activity was determined from the corrected luminescence values. As no specific T. brucei PFK inhibitors have been identified in the literature, 1x (1.25nM) and 0x PFK enzyme controls (untreated) were included to normalize %Activity of identified inhibitors; 0x enzyme values corresponded to 100%Activity (full inhibition), while 1x PFK enzyme values were used to normalize 0%Activity (no inhibition). Concentration-response curves were fitted to the signals arising from the resulting luminescence. […]

Chains of the proteins cited; added tags and fusions are not shown.
UniProt O15648, whole entry: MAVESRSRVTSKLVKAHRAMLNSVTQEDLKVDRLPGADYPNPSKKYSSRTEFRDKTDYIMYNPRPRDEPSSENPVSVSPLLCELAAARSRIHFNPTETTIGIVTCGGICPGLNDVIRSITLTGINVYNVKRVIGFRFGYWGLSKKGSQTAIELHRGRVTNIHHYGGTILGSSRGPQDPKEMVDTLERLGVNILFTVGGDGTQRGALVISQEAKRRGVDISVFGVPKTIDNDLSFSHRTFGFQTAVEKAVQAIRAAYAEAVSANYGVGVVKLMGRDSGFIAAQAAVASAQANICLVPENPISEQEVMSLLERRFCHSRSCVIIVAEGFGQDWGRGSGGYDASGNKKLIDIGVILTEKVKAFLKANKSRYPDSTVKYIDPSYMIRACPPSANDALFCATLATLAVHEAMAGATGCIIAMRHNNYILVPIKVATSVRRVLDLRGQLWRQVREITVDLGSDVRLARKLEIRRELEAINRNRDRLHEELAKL

Question: How did the activity, negative = inhibition turn out when `CN(C)c1cccc(C(=O)NCC2(N(C)C)CCCCC2)c1` was run?
Answer: inactive: 1.51%

Question: Which activity, negative = inhibition does the source give for `CC(C)Oc1ccc(C(=O)NCC2(N(C)C)CCCCC2)cc1` here?
Answer: inactive: -11%

Question: `COc1ccc(Br)c(C(=O)NCC2(N3CCCCC3)CCCCC2)c1` was tested. Which activity, negative = inhibition did it give?
Answer: inactive: 0%

Question: How did the activity, negative = inhibition turn out when `O=C(OC1CN2CCC1CC2)C(CO)(c1ccccc1)c1ccccc1` (centres undefined) was run?
Answer: inactive: -1.58%

Question: `O=C(NCC1(N2CCCCC2)CCCCC1)c1cccc(Cl)c1` was tested. Which activity, negative = inhibition did it give?
Answer: inactive: -2.18%

Question: `COc1cccc(C(=O)NCC2(N3CCCCC3)CCCCC2)c1` was tested. Which activity, negative = inhibition did it give?
Answer: inactive: 1.21%

Question: How did the activity, negative = inhibition turn out when `COc1ccc(Cl)cc1C(=O)NCC1(N(C)C)CCCCC1` was run?
Answer: inactive: 1.14%

Question: How did the activity, negative = inhibition turn out when `COc1cc(C(=O)NCC2(N(C)C)CCCCC2)c([N+](=O)[O-])cc1OC` was run?
Answer: inactive: 0.557%

Question: `CN(C)C1(CNC(=O)c2ccc(Br)cc2)CCCCC1` was tested. Which activity, negative = inhibition did it give?
Answer: inactive: 7.71%

Question: For `Cc1cc(C(=O)NCC2(N3CCCCC3)CCCCC2)ccc1[N+](=O)[O-]`, which activity, negative = inhibition is on record?
Answer: inactive: -2.4%

Question: `CCN1CCCC(OC(=O)C2(O)c3ccccc3C=Cc3ccccc32)C1` (centres undefined) was tested. Which activity, negative = inhibition did it give?
Answer: inactive: -0.156%

Question: For `O=C(NCC1(N2CCCCC2)CCCCC1)c1cccc(Br)c1`, which activity, negative = inhibition is on record?
Answer: inactive: -0.241%

Question: `COc1ccc(C(=O)NCC2(N(C)C)CCCCC2)cc1` was tested. Which activity, negative = inhibition did it give?
Answer: inactive: -1.02%

Question: With `C=CCN1CCN(CCOC(=O)C(O)(c2ccccc2)c2ccccc2)CC1` as the molecule, how does the activity, negative = inhibition read?
Answer: inactive: -0.0567%

Question: `O=C(NCC1(N2CCCCC2)CCCCC1)c1cc(F)c(F)cc1Cl` was tested. Which activity, negative = inhibition did it give?
Answer: inactive: 0.774%

Question: `Cc1ccccc1C(=O)NCC1(N2CCCCC2)CCCCC1` was tested. Which activity, negative = inhibition did it give?
Answer: inactive: -1.18%

Question: `CN(C)C1CCCC1OC(=O)C(O)(c1ccccc1)c1ccccc1` (centres undefined) was tested. Which activity, negative = inhibition did it give?
Answer: inactive: 8.36%

Question: `CN(C)c1ccc(C(=O)NCC2(N(C)C)CCCCC2)cc1` was tested. Which activity, negative = inhibition did it give?
Answer: inactive: -5.88%

Question: With `Cc1ccc(C(=O)NCC2(N3CCCCC3)CCCCC2)cc1` as the molecule, how does the activity, negative = inhibition read?
Answer: inactive: 0.394%

Question: For `CC(C)N1C(=O)CC2(CCN(CCOC(=O)C(O)(c3ccccc3)c3ccccc3)CC2)C1=O`, which activity, negative = inhibition is on record?
Answer: inactive: -4.85%

Question: How did the activity, negative = inhibition turn out when `CCN(CC)CC(C)C(C)OC(=O)C(O)(c1ccccc1)c1ccccc1` (centres undefined) was run?
Answer: inactive: -2.32%

Question: How did the activity, negative = inhibition turn out when `COc1cc(SC)ccc1C(=O)NCC1(N(C)C)CCCCC1` was run?
Answer: inactive: -3.47%

Question: With `CN1[C@@H]2CC[C@H]1CC(OC(=O)C(O)(c1ccccc1)c1ccccc1)C2` (some centres undefined) as the molecule, how does the activity, negative = inhibition read?
Answer: inactive: 0%

Question: With `O=C(NCC1(N2CCCCC2)CCCCC1)c1cc([N+](=O)[O-])ccc1Cl` as the molecule, how does the activity, negative = inhibition read?
Answer: inactive: 7.29%

From PubChem BioAssay AID485367 (National Center for Advancing Translational Sciences (NCATS), 2010)
